Assay results from ChEMBL document CHEMBL1139391, “Synthesis and structure-activity relationship of benzetimide derivatives as human CXCR3 antagonists” (Bioorg Med Chem Lett, 2008).

Target: T1, C-X-C chemokine receptor type 3 (Homo sapiens, UniProt P49682)
T1 sequence (P49682 whole entry): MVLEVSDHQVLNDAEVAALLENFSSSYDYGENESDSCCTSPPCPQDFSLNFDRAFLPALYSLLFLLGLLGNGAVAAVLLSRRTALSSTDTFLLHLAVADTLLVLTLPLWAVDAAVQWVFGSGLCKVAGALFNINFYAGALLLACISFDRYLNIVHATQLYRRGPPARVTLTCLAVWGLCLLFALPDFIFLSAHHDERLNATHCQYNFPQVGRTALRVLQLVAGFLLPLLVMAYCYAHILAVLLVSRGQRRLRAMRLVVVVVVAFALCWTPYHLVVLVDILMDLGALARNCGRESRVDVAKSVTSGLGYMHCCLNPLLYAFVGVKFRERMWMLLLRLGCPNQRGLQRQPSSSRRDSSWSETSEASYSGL
Assay: Antagonist activity at human CXCR3 expressed in CHO cells assessed as inhibition of ITAC-stimulated [35S]GTPgammaS binding pretreated 30 mins before ITAC challenge
Format: functional, cell-based
In short: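 Membranes from stably hCXCR3-expressing CHO cells in 20 mM Hepes, 100 mM NaCl, 3 µM GDP, 1 mM MgCl2, 14 µg/ml saponin, pH 7.4. Pre-incubated with compound for 30 min at 30 °C, then stimulated with human ITAC (3 nM) or IP-10 (150 nM).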

## CCOc1ccc(-n2c([C@@H](C)N(Cc3cccnc3)C(=O)Cc3ccc(OC(F)(F)F)cc3)nc3ncccc3c2=O)cc1
  IC50: 330 nM
